The chains behind the UniProt entries cited, without tags or fusion partners. Residues count along the entry.
UniProt Q13546, 2-375 limits assumed: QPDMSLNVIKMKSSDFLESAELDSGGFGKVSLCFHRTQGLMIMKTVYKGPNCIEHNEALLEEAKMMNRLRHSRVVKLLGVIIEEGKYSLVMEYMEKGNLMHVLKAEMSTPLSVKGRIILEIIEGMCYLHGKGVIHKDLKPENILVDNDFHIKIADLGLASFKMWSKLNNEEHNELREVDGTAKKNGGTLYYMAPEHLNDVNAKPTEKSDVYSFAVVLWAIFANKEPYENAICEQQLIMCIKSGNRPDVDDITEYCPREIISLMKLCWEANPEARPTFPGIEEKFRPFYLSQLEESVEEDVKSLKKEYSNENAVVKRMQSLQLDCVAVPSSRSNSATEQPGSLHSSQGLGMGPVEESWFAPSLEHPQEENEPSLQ

This assay has as its target human RIP1 kinase domain (2-375) (Homo sapiens (Human), UniProt Q13546). The note with it: read-out: RIP1 Ki, 50 uM ATP, 2 hours incubation, Transcreener ADP assay.
One may read the Ki as the equilibrium dissociation constant of an inhibitor or competing ligand from its target. Consider `CC[C@@]1(C)Cc2c(C(=O)N[C@H]3COc4ccccc4N(C)C3=O)n[nH]c2CO1`, for which the Ki turned out to be 414 nM. With `CC[C@]1(C)Cc2c(C(=O)N[C@H]3COc4ccccc4N(C)C3=O)n[nH]c2CO1` the figure was 106 nM. For `CN1C(=O)C(NC(=O)c2cc3c(cn2)cnn3[C@@H]2CCOC2)COc2ccccc21` (stereo partly drawn), the Ki is 41.5 nM.

Source of the values: patent US10988459B2 (priority 2015, dated 2021).
